Assay results reported in PMC9305425 (Chemmedchem, 2022).
“And” between values parts separate entries of the source, which are not always exact repeats. Equal entries are not always repeated.

The chains behind the UniProt entries cited, without tags or fusion partners. Residues count along the entry.
UniProt P0AEG4, 20-208: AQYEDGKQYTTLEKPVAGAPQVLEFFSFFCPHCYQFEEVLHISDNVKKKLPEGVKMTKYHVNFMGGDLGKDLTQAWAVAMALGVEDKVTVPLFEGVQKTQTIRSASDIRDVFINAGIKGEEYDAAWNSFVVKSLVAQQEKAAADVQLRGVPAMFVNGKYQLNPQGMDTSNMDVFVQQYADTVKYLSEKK
UniProt P32557, 20-200: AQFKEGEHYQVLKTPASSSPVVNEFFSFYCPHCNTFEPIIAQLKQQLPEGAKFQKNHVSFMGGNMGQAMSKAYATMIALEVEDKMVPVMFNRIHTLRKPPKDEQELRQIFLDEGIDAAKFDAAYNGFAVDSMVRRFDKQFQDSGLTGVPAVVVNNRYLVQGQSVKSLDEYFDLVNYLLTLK

Columns and labels:
[1] = biological target: oxidized EcDsbA (Escherichia coli, UniProt P0AEG4); type: binding; parameters: made in house; host or cells: E. coli BL21(DE3)
[2] = biological target: T1, oxidized VcDsbA (Vibrio cholerae serotype O1, UniProt P32557); assay: biochemical; type: binding
T1 construct: made in house; host or cells: E. coli BL21(DE3)

C[C@H](CCC(=O)NCCS(=O)(=O)O)[C@H]1CC[C@H]2[C@@H]3[C@H](O)C[C@@H]4C[C@H](O)CC[C@]4(C)[C@H]3C[C@H](O)[C@]12C [TC, sodium taurocholate]
protein unfolding seen in HSQC spectra [1]: did not induce protein unfolding
effect on the oxidation state of DsbA [2]: no effect on the oxidation state
protein unfolding seen in HSQC spectra [2]: did not induce protein unfolding
Kd ([2]; equilibrium dissociation constant (KD)): 148 µM and ~148 µM
